This note sets out measurements from US11046680B1, “Heteroaryl-substituted triazoles as APJ receptor agonists” (priority 2016, dated 2021).

Chains of the proteins cited; added tags and fusions are not shown. Lines headed by an entry give the natural chain unless they say otherwise; changes in a name come on top.
UniProt P35414: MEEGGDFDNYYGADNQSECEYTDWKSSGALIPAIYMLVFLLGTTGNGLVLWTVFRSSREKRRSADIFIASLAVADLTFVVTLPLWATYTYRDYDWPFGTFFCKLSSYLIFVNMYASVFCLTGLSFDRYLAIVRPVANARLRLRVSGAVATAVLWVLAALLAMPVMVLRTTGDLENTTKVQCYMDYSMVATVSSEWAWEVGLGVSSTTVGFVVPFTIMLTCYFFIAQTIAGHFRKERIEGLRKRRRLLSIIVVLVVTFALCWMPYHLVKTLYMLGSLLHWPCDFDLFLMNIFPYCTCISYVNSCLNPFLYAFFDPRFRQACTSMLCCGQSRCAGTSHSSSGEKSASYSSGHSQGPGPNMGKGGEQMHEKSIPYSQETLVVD

In general, EC50 refers to the midpoint of the concentration-response curve.

Read-outs that look alike come from different tables or passages of the source.

The assay concerns the target human APJ receptor (Homo sapiens (Human), UniProt P35414). The assay can be described thus: biochemical. As to conditions: [35S]GTPγS binding, CHO membranes expressing human APJ receptor. The method, then: The human APJ receptor was cloned by polymerase chain reaction and the gene encoding the receptor was subcloned in pFLAG-CMV™-3 expression vector (Sigma, Saint Louis, Mo. USA) in-house at Amgen. A GTPγS binding assay was performed on membranes prepared from CHO cells stably expressing human APJ receptor. The optimum experimental conditions for the concentrations of GDP, MgCl2, and NaCl in the assay buffer were initially determined. […] Incubation was at RT for 90 min and the microplate was read using a ViewLux™ ultra HTS Microplate Imager (PerkinElmer, Inc.).

[1] abbreviates: read-out: Activity hAPJ SPA EC50 IP.

Consider `COCC[C@@H]([C@H](C)c1ncc(F)cn1)S(=O)(=O)Nc1nnc(-c2nc(C)cs2)n1-c1c(OC)cccc1OC` (single isomer, unassigned) [Example 20.0], for which the EC50 under setting [1] came out at 0.0011 µM.
Same read-out and setting: next, `COc1cccc(OC)c1-n1c(NS(=O)(=O)[C@H](C)[C@H](O)c2ccc(F)cn2)nnc1-c1ccn(C)n1` (single isomer, unassigned) [Example 23.0]: 0.0011 µM.
As to `COc1cccc(OC)c1-n1c(NS(=O)(=O)[C@H](C)Cc2ncc(F)cn2)nnc1-c1conc1C` (single isomer, unassigned) [Example 64.0, (R)-N-(4-(2,6-dimethoxyphenyl)-5-(3-methylisoxazol-4-yl)-4H-1,2,4-triazol-3-yl)-1-(5-fluoropyrimidin-2-yl)propane-2-sulfonamide or (S)-N-(4-(2,6-dimethoxyphenyl)-5-(3-methylisoxazol-4-yl)-4H-1,2,4-triazol-3-yl)-1-(5-fluoropyrimidin-2-yl)propane-2-sulfonamide], under setting [1], the concentration giving a half-maximal response (EC50) amounted to 0.15 µM.
On the same count and under the same terms, the figure for `COc1cccc(OC)c1-n1c(NS(=O)(=O)C[C@H](O)c2ccc(Cl)cn2)nnc1-c1ccn(C)n1` (single isomer, unassigned) [Example 366.0, (R)-2-(5-Chloropyridin-2-yl)-N-(4-(2,6-dimethoxyphenyl)-5-(1-methyl-1H-pyrazol-3-yl)-4H-1,2,4-triazol-3-yl)-2-hydroxyethanesulfonamide or (S)-2-(5-chloropyridin-2-yl)-N-(4-(2,6-dimethoxyphenyl)-5-(1-methyl-1H-pyrazol-3-yl)-4H-1,2,4-triazol-3-yl)-2-hydroxyethanesulfonamide] is 0.0047 µM; for `COc1cccc(OC)c1-n1c(NS(=O)(=O)[C@H](C)Cc2ncc(F)cn2)nnc1-c1cc(C)no1` [Example 62.0, ((R)-N-(4-(2,6-dimethoxyphenyl)-5-(3-methylisoxazol-5-yl)-4H-1,2,4-triazol-3-yl)-1-(5-fluoropyrimidin-2-yl)propane-2-sulfonamide (or (R)-N-(4-(2,6-dimethoxyphenyl)-5-(3-methylisoxazol-5-yl)-4H-1,2,4-triazol-3-yl)-1-(5-fluoropyrimidin-2-yl)propane-2-(sulfonamide] it is 0.016 µM.
Where the note is “Activity hAPJ SPA EC50 IP (μM)”, `COc1cccc(OC)c1-n1c(NS(=O)(=O)[C@@H](C)[C@H](OC)c2ncc(C#N)cn2)nnc1-c1ccn(C)n1` [Example 213.0, (1R,2S)-1-(5-cyanopyrimidin-2-yl)-N-(4-(2,6-dimethoxyphenyl)-5-(1-methyl-1H-pyrazol-3-yl)-4H-1,2,4-triazol-3-yl)-1-methoxypropane-2-sulfonamide] displayed an EC50 of 0.0012 µM.
For the compound `COc1ccc(C2=CCSCC2)cc1-n1c(NS(=O)(=O)CCc2ccc(Cl)cc2)nnc1-c1cccs1` [Example 248.0, 2-(4-chlorophenyl)-N-(4-(5-(3,6-dihydro-2H-thiopyran-4-yl)-2-methoxyphenyl)-5-(thiophen-2-yl)-4H-1,2,4-triazol-3-yl)ethanesulfonamide], the EC50 under setting [1] was found to be 0.021 µM.
Same read-out and setting: next, `COc1ccc(N2CCOC2=O)cc1-n1c(NS(=O)(=O)CCc2ccc(Cl)cc2)nnc1-c1cccs1` [Example 249.0, 2-(4-chlorophenyl)-N-(4-(2-methoxy-5-(2-oxooxazolidin-3-yl)phenyl)-5-(thiophen-2-yl)-4H-1,2,4-triazol-3-yl)ethanesulfonamide]: 0.727 µM.
Same read-out and setting: the figure for `COc1ccc(C2=CCS(=O)(=O)CC2)cc1-n1c(NS(=O)(=O)CCc2ccc(Cl)cc2)nnc1-c1cccs1` [Example 250.0, 2-(4-chlorophenyl)-N-(4-(5-(1,1-dioxido-3,6-dihydro-2H-thiopyran-4-yl)-2-methoxyphenyl)-5-(2-thiophenyl)-4H-1,2,4-triazol-3-yl)ethanesulfonamide] is 0.013 µM.
Same read-out and setting: next, `COc1ccc(Br)cc1-n1c(NS(=O)(=O)CCc2ccc(F)cc2)nnc1-c1cccs1` [Example 302.0, N-(4-(5-Bromo-2-methoxyphenyl)-5-(2-thiophenyl)-4H-1,2,4-triazol-3-yl)-2-(4-fluorophenyl)ethanesulfonamide]: 0.323 µM.
On to `COc1ccc(N(C)C)cc1-n1c(NS(=O)(=O)CCc2ccc(F)cc2)nnc1-c1cccs1` [Example 303.0, N-(4-(5-(Dimethylamino)-2-methoxyphenyl)-5-(2-thiophenyl)-4H-1,2,4-triazol-3-yl)-2-(4-fluorophenyl)ethanesulfonamide], for which, where the note is “Activity hAPJ SPA EC50 IP (μM)”, the response was half-maximal at 0.014 µM (EC50).
With `COc1cccc(OC)c1-n1c(NS(=O)(=O)[C@@H](C)[C@H](OC)c2cnc(C)cn2)nnc1-c1ccn(C)n1` [Example 323.0, (1R,2S)-N-(4-(2,6-dimethoxyphenyl)-5-(1-methyl-1H-pyrazol-3-yl)-4H-1,2,4-triazol-3-yl)-1-methoxy-1-(5-methyl-2-pyrazinyl)-2-propanesulfonamide], the EC50 under setting [1] came to 0.0011 µM.
For `COc1cccc(OC)c1-n1c(NS(=O)(=O)[C@@H](C)[C@H](OC)c2ncc(Cl)cn2)nnc1-c1ccn(C)n1` [Example 330.0, (1R,2S)-1-(5-chloropyrimidin-2-yl)-N-(4-(2,6-dimethoxyphenyl)-5-(1-methyl-1H-pyrazol-3-yl)-4H-1,2,4-triazol-3-yl)-1-methoxypropane-2-sulfonamide], the EC50 under setting [1] stood at 0.00062 µM.
